Data on 1 compound can be found in publication PMC10573946, “Enhancing Giardicidal Activity and Aqueous Solubility through the Development of “RetroABZ”, a Regioisomer of Albendazole: In Vitro, In Vivo, and In Silico Studies” (International Journal of Molecular Sciences, 2023).

For assay [1], the system named is HaCaT (immortalized human keratinocytes). Nature of the assay: In vitro cytotoxic assay (CellTiter 96 AQueous One) in HaCaT. It is filed as cell-based. As to conditions: CC50 HaCaT / IC50 G. lamblia. As for the experimental part:
(§1) The cytotoxic assay of RetroABZ was carried out in Huh-7 (human hepatocellular carcinoma cell line) cells acquired from ATCC (American Type Culture Collection, Manassas, VA, USA). We also included an immortalized human epidermal keratinocyte line (HaCaT) as a control of non-cancerous cells. The cells were cultured in a DMEM medium (Invitrogen, Thermo Fisher Scientific, Inc., Waltham, MA, USA), supplemented with 10% fetal bovine serum (SFB, Invitrogen) and 2 mM glutamine. All cultures were maintained under standard culture conditions (37 °C and 5% CO2). For the cytotoxic assessment in a 96-well plate, 5000 cells per well were planted. […] The cellular viability was next calculated utilizing the CellTiter 96® AQueous One Solution Cell Proliferation Assay kit (Promega, Madison, WI, USA), following the manufacturer’s instructions. The experiments were carried out in triplicate in separate experiments. The Prism 8.0 statistical tool (Graphpad Software Inc., La Jolla, CA, USA) was used to examine the data, and a regression analysis was used to obtain the IC50.

In assay [2] the test system is Huh-7 (human hepatocellular carcinoma cell line). Nature of the assay: In vitro cytotoxic assay (CellTiter 96 AQueous One) in Huh-7. Particulars: CC50 Huh-7 / IC50 G. lamblia. In kind it is cell-based. As for the experimental part: as §1

For the compound `CCCSc1ccc2nc(NC(=O)OC)[nH]c2c1` [Albendazole], the “Selectivity Index CC50/IC50 HaCaT” value in assay [1] came to 603. Further, the “Selectivity Index CC50/IC50 Huh-7” value in assay [2] came to 407.
